The values below come from the OPERA property sets (Mansouri et al. 2018).

The conditions of the series: experimental values compiled from the literature.

Values after ≈ are worked out from the molar mass of the structure shown.

On to `CC(C)OP(=O)(F)OC(C)C`, for which the solubility (as a rule, the concentration that dissolves in the medium under given conditions) stood at 83.6 mM (≈ 15.4 mg/mL).
